Experimental findings from ChEMBL document CHEMBL1145819 (J Med Chem, 2003) are described below.

The chains behind the UniProt entries cited, without tags or fusion partners.
UniProt P32305, whole entry: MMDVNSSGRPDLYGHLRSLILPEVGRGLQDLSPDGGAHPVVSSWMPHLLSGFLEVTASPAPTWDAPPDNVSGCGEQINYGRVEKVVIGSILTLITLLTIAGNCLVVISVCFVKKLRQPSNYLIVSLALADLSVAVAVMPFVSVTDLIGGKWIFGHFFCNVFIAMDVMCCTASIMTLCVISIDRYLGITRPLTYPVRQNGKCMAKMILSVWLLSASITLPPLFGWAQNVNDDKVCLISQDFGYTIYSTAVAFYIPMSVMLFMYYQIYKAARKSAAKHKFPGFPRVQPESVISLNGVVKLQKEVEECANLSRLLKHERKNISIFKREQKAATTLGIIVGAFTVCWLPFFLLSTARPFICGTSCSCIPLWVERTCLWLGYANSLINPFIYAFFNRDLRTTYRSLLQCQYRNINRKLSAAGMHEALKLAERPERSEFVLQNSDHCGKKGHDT

This assay concerns the target 5-hydroxytryptamine receptor 7 (Rattus norvegicus, UniProt P32305). The assay can be described thus: Binding affinity towards rat 5-hydroxytryptamine 7 receptor.

For orientation: Ki means a dissociation constant, usually derived from enzyme kinetics or from competition with a known ligand. A high value points to lower affinity. `CCN(CC)C(=O)[C@@H]1C=C2c3cccc4[nH]cc(c34)C[C@H]2N(C)C1` [LYSERGIDE] had a Ki of 2 nM.
